The values that follow come from patent US20260116920A1, “HUMAN TRANSFERRIN RECEPTOR BINDING PEPTIDE” (PEPTIDREAM INC., priority 2021, published 2026).

The chains behind the UniProt entries cited, without tags or fusion partners. Residues count along the entry.
UniProt P02786, 89-760 limits assumed: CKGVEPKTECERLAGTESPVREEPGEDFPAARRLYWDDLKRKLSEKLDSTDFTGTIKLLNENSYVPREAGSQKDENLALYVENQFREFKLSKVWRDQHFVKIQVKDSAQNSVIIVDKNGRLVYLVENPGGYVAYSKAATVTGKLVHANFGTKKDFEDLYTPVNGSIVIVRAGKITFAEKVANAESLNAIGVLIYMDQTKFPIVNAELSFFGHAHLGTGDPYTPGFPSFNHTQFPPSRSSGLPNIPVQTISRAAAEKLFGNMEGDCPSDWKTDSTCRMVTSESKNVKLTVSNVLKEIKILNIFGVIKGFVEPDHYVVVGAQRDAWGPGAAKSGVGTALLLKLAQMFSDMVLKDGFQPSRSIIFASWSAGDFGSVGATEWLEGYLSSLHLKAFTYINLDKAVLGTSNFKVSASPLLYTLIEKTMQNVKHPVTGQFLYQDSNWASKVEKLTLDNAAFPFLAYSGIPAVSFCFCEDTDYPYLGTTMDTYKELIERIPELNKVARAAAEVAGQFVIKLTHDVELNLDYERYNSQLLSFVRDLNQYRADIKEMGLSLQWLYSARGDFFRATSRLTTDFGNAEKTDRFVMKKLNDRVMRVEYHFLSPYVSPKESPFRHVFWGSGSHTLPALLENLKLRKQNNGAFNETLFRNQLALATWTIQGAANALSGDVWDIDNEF

Read-outs that look alike come from different tables or passages of the source.

The target in this assay is T1, human transferrin receptor (hTfR) (Homo sapiens, UniProt P02786).
T1 construct: made in house
In words: Evaluation of molecular interaction between transferrin receptor (hTfR) and peptide using surface plasmon resonance (SPR). The assay is classed as binding. How it is done:
Evaluation Test of Molecular Interaction Between Transferrin Receptor (hTfR) and Peptide Using Surface Plasmon Resonance (SPR)
The intermolecular interactions of various synthesized peptides with the transferrin receptor (hTfR) by surface plasmon resonance (SPR) of the peptides were tested by the methods described below. Specific test methods are shown below.
NTA sensor chip (Global Life Sciences Technologies Japan K.K.) was inserted into BiacoreT200 (Global Life Sciences Technologies Japan K.K.), then the priming operation was performed three times by using running buffer containing: 10 mM HEPES pH 8.0 (Nacalai Tesque, Inc.), 150 mM NaCl (Nacalai Tesque, Inc.), 0.05% Tween 20 (Nacalai Tesque, Inc.), 0.1% BSA (SIGMA-ALDRICH) and 1.0% DMSO (FUJIFILM Wako Pure Chemical Corporation), and equilibrated at a flow rate of 30 μL/min. 350 mM EDTA solution was reacted at a flow rate of 10 μL/min for 60 seconds, 0.5 mM […] solution (Kishida Chemical Co., Ltd.) was reacted at a flow rate of 10 μL/min for 60 seconds, and then the NTA sensor chip was washed with 3 mM EDTA solution (Nacalai Tesque, Inc.) at a flow rate of 10 μL/min for 60 seconds. After mixing 50 μL each of 60 mM EDC solution (Global Life Science Technologies Japan K.K.) and 650 mM NHS solution (Global Life Science Technologies Japan K.K.), the reaction was carried out at a flow rate of 10 μL/min for 420 seconds. 150 μL of 0.5 μM hTfR dimer solution was prepared by dilution with running buffer and reacted at a flow rate of 10 μL/min for 300 seconds to immobilize hTfR on the NTA sensor chip. For the human transferrin receptor (hTfR), recombinant hTfR described in Example 2 of WO2018/124121 was used. After immobilization, capping was performed by reacting with 1.0 M ethanolamine solution (Global Life Sciences Technologies Japan K.K.) at a flow rate of 10 μL/min for 420 seconds. Peptide lysate prepared in DMSO solution to 10 mM was diluted with running buffer to be a final concentration of 10 μM peptide lysate, then peptide solutions of 100 nM, 50 nM, 25 nM, 10 nM, and 5 nM were prepared. Using the above samples, the kinetics of the peptide against hTfR was obtained by SPR measurement.
The kinetic evaluation model was single-cycle kinetics, and curve fitting was performed using Biacore T200 Evaluation Software Version 3.0 (Global Life Science Technologies Japan K.K.). The binding of the peptide to hTfR was evaluated by performing curve fitting on the obtained sensorgram by least squares method and obtaining the KD value.
Background: In SPR one partner is held on a chip, and binding of the other changes the refractive index at the surface.

The mark [1] stands for this setting: KD class of the peptide with linker for hTfR by surface plasmon resonance, read-out: SPR.
[2] abbreviates: KD class of peptide with linker binding to hTfR, by SPR (TABLE 5), read-out: SPR.

For `CC[C@H](C)[C@@H]1NC(=O)[C@H](Cc2ccc(OCC(=O)O)cc2)NC(=O)[C@H](Cc2ccc(O)cc2)NC(=O)[C@H](CC(N)=O)NC(=O)[C@H](Cc2cn(CC(=O)O)c3ccccc23)NC(=O)[C@H](C(C)C)NC(=O)[C@H](Cc2cccc(Cl)c2)N(C)C(=O)[C@H](C(C)C)NC(=O)[C@H](C)NC(=O)CSC[C@@H](C(=O)NCC(=O)N[C@@H](CCCCN=[N+]=[N-])C(N)=O)NC(=O)[C@H](Cc2ccc(O)cc2)N(C)C(=O)[C@H](Cc2ccncc2)NC(=O)[C@H](CCCNC(=N)N)NC(=O)[C@H](CCC(=O)NCCOCCOCCOCCOCCOCCOCCOCCOC)NC(=O)[C@H]([C@@H](C)CC)NC1=O` [compound 268], under setting [1], the Kd was in the range of 100 to 1000 nM.

`CC[C@H](C)[C@@H]1NC(=O)[C@H](Cc2ccc(OCC(=O)O)cc2)NC(=O)[C@H](Cc2ccc(O)cc2)NC(=O)[C@H](CC(N)=O)NC(=O)[C@H](Cc2cn(CC(=O)O)c3ccccc23)NC(=O)[C@H](C(C)C)NC(=O)[C@H](Cc2cccc(Cl)c2)N(C)C(=O)[C@H](C(C)C)NC(=O)[C@H](C)NC(=O)CSC[C@@H](C(=O)NCC(=O)N[C@H](CO)C(=O)N[C@H](CO)C(=O)N[C@H](CO)C(=O)N[C@H](CO)C(=O)N[C@H](CO)C(=O)N[C@@H](CCCCNC(C)=O)C(N)=O)NC(=O)[C@H](Cc2ccc(O)cc2)N(C)C(=O)[C@H](Cc2cccc(C(=O)O)c2)NC(=O)[C@H](CCCCN2CCOCC2)NC(=O)[C@H](CCCCN2CCOCC2)NC(=O)[C@H]([C@@H](C)CC)NC1=O` [compound 309]: the Kd under setting [1] lay in the range of 1 to 100 nM.

For `CC[C@H](C)[C@@H]1NC(=O)[C@H](Cc2ccc(OCC(=O)O)cc2)NC(=O)[C@H](Cc2ccc(O)cc2)NC(=O)[C@H](CC(N)=O)NC(=O)[C@H](Cc2cn(CC(=O)O)c3ccccc23)NC(=O)[C@H](C(C)C)NC(=O)[C@H](Cc2cccc(Cl)c2)N(C)C(=O)[C@H](C(C)C)NC(=O)[C@H](C)NC(=O)CSC[C@@H](C(=O)NCC(=O)N[C@H](CCC(=O)O)C(=O)N[C@H](CCC(=O)O)C(=O)N[C@H](CO)C(=O)N[C@H](CO)C(=O)N[C@H](CO)C(=O)N[C@@H](CCCCNC(C)=O)C(N)=O)NC(=O)[C@H](Cc2ccc(O)cc2)N(C)C(=O)[C@H](Cc2ccccc2)NC(=O)[C@H](CCCNC(=N)N)NC(=O)[C@H](CCCNC(=N)N)NC(=O)[C@H]([C@@H](C)CC)NC1=O` [compound 319], under setting [2], the Kd lay within 1 to 100 nM.

Take `CC[C@H](C)[C@@H]1NC(=O)[C@H](Cc2ccc(OCC(=O)O)cc2)NC(=O)[C@H](Cc2ccc(O)cc2)NC(=O)[C@H](CC(N)=O)NC(=O)[C@H](Cc2cn(CC(=O)O)c3ccccc23)NC(=O)[C@H](C(C)C)NC(=O)[C@H](Cc2cccc(Cl)c2)N(C)C(=O)[C@H](C(C)C)NC(=O)[C@H](C)NC(=O)CSC[C@@H](C(=O)NCC(=O)N[C@H](CCC(=O)O)C(=O)N[C@H](CCC(=O)O)C(=O)N[C@H](CO)C(=O)N[C@H](CO)C(=O)N[C@H](CCC(=O)O)C(=O)N[C@@H](CCCCNC(C)=O)C(N)=O)NC(=O)[C@H](Cc2ccc(O)cc2)N(C)C(=O)[C@H](Cc2ccccc2)NC(=O)[C@H](CCCNC(=N)N)NC(=O)[C@H](CCCNC(=N)N)NC(=O)[C@H]([C@@H](C)CC)NC1=O` [compound 328]: the Kd under setting [2] was 1 to 100 nM.

Consider `CC[C@H](C)[C@@H]1NC(=O)[C@H](Cc2ccc(OCC(=O)O)cc2)NC(=O)[C@H](Cc2ccc(O)cc2)NC(=O)[C@H](CC(N)=O)NC(=O)[C@H](Cc2cn(CC(=O)O)c3ccccc23)NC(=O)[C@H](C(C)C)NC(=O)[C@H](Cc2cccc(Cl)c2)N(C)C(=O)[C@H](C(C)C)NC(=O)[C@H](C)NC(=O)CSC[C@@H](C(=O)NCC(=O)N[C@@H](CCCCN)C(N)=O)NC(=O)[C@H](Cc2ccc(O)cc2)N(C)C(=O)[C@H](Cc2cccc(C(=O)O)c2)NC(=O)[C@H](CCCNC(=N)N)NC(=O)[C@H](CCC(N)=O)NC(=O)[C@H]([C@@H](C)CC)NC1=O` [compound 287], for which the Kd under setting [1] is under 1 nM.

With `CC[C@H](C)[C@@H]1NC(=O)[C@H](Cc2ccc(OCC(=O)O)cc2)NC(=O)[C@H](Cc2ccc(O)cc2)NC(=O)[C@H](CC(N)=O)NC(=O)[C@H](Cc2cn(CC(=O)O)c3ccccc23)NC(=O)[C@H](C(C)C)NC(=O)[C@H](Cc2cccc(Cl)c2)N(C)C(=O)[C@H](C(C)C)NC(=O)[C@H](C)NC(=O)CSC[C@@H](C(=O)NCC(=O)N[C@H](CO)C(=O)N[C@H](CCC(=O)O)C(=O)N[C@H](CO)C(=O)N[C@H](CCC(=O)O)C(=O)N[C@H](CO)C(=O)N[C@@H](CCCCNC(C)=O)C(N)=O)NC(=O)[C@H](Cc2ccc(O)cc2)N(C)C(=O)[C@H](Cc2ccccc2)NC(=O)[C@H](CCCNC(=N)N)NC(=O)[C@H](CCCNC(=N)N)NC(=O)[C@H]([C@@H](C)CC)NC1=O` [compound 314], the Kd under setting [2] was 1 to 100 nM.

Regarding `CC[C@H](C)[C@@H]1NC(=O)[C@H](Cc2ccc(OC)cc2)NC(=O)[C@H](Cc2ccc(O)cc2)NC(=O)[C@H](CC(N)=O)NC(=O)[C@H](Cc2c[nH]c3ncccc23)NC(=O)[C@H](C(C)C)NC(=O)[C@H](Cc2cccc(Cl)c2)N(C)C(=O)[C@H](C(C)C)NC(=O)[C@H](C)NC(=O)CSC[C@@H](C(=O)NCC(=O)N[C@@H](CCCCN=[N+]=[N-])C(N)=O)NC(=O)[C@H](Cc2ccc(O)cc2)N(C)C(=O)[C@H](Cc2ccncc2)NC(=O)[C@H](CCCNC(=N)N)NC(=O)[C@H](CCCNC(=N)N)NC(=O)[C@H]([C@@H](C)CC)NC1=O` [compound 281], the Kd under setting [1] was under 1 nM.

`CC[C@H](C)[C@@H]1NC(=O)[C@H](Cc2ccc(OCC(=O)O)cc2)NC(=O)[C@H](Cc2ccc(O)cc2)NC(=O)[C@H](CC(N)=O)NC(=O)[C@H](Cc2c[nH]c3ncccc23)NC(=O)[C@H](C(C)C)NC(=O)[C@H](Cc2cccc(Cl)c2)N(C)C(=O)[C@H](C(C)C)NC(=O)[C@H](C)NC(=O)CSC[C@@H](C(=O)NCC(=O)N[C@H](CCC(=O)O)C(=O)N[C@H](CCC(=O)O)C(=O)N[C@H](CCC(=O)O)C(=O)N[C@H](CO)C(=O)N[C@H](CO)C(=O)N[C@@H](CCCCN=[N+]=[N-])C(N)=O)NC(=O)[C@H](Cc2ccc(O)cc2)N(C)C(=O)[C@H](Cc2cccc(C(=O)O)c2)NC(=O)[C@H](CCCNC(=N)N)NC(=O)[C@H](CCC(=O)NCCOCCOCCOCCOCCOCCOCCOCCOC)NC(=O)[C@H]([C@@H](C)CC)NC1=O` [compound 347]: the Kd under setting [2] lay in the range of 1 to 100 nM.

For `CC[C@H](C)[C@@H]1NC(=O)[C@H](Cc2ccc(OCC(=O)O)cc2)NC(=O)[C@H](Cc2ccc(O)cc2)NC(=O)[C@H](CC(N)=O)NC(=O)[C@H](Cc2cn(CC(=O)O)c3ccccc23)NC(=O)[C@H](C(C)C)NC(=O)[C@H](Cc2cccc(Cl)c2)N(C)C(=O)[C@H](C(C)C)NC(=O)[C@H](C)NC(=O)CSC[C@@H](C(=O)NCC(=O)N(C)CC(=O)N(C)CC(=O)N(C)CC(=O)N(C)CC(=O)N(C)CC(=O)N[C@@H](CCCCNC(C)=O)C(N)=O)NC(=O)[C@H](Cc2ccc(O)cc2)N(C)C(=O)[C@H](Cc2ccccc2)NC(=O)[C@H](CCCNC(=N)N)NC(=O)[C@H](CCCNC(=N)N)NC(=O)[C@H]([C@@H](C)CC)NC1=O` [compound 295], the Kd (SPR, KD class of the peptide with linker for hTfR by surface plasmon resonance) lay in the range of 1 to 100 nM.

With `CC[C@H](C)[C@@H]1NC(=O)[C@H](Cc2ccc(OCC(=O)O)cc2)NC(=O)[C@H](Cc2ccc(O)cc2)NC(=O)[C@H](CC(N)=O)NC(=O)[C@H](Cc2cn(CC(=O)O)c3ccccc23)NC(=O)[C@H](C(C)C)NC(=O)[C@H](Cc2cccc(Cl)c2)N(C)C(=O)[C@H](C(C)C)NC(=O)[C@H](C)NC(=O)CSC[C@@H](C(=O)NCC(=O)N[C@H](CCC(=O)O)C(=O)N[C@H](CO)C(=O)N[C@H](CO)C(=O)N[C@H](CO)C(=O)N[C@H](CO)C(=O)N[C@@H](CCCCNC(C)=O)C(N)=O)NC(=O)[C@H](Cc2ccc(O)cc2)N(C)C(=O)[C@H](Cc2ccccc2)NC(=O)[C@H](CCCNC(=N)N)NC(=O)[C@H](CCCNC(=N)N)NC(=O)[C@H]([C@@H](C)CC)NC1=O` [compound 315], the Kd under setting [2] fell in the range of 1 to 100 nM.

As to `CC[C@H](C)[C@@H]1NC(=O)[C@H](Cc2ccc(OCC(=O)O)cc2)NC(=O)[C@H](Cc2ccc(O)cc2)NC(=O)[C@H](CC(N)=O)NC(=O)[C@H](Cc2cn(CC(=O)O)c3ccccc23)NC(=O)[C@H](C(C)C)NC(=O)[C@H](Cc2cccc(Cl)c2)N(C)C(=O)[C@H](C(C)C)NC(=O)[C@H](C)NC(=O)CSC[C@@H](C(=O)NCC(=O)N[C@@H](CCCCNC(=O)C2CCC(CN3C(=O)C=CC3=O)CC2)C(N)=O)NC(=O)[C@H](Cc2ccc(O)cc2)N(C)C(=O)[C@H](Cc2cccc(C(=O)O)c2)NC(=O)[C@H](CCCCN2CCOCC2)NC(=O)[C@H](CCCCN2CCOCC2)NC(=O)[C@H]([C@@H](C)CC)NC1=O` (some centres unmarked) [compound 292], under setting [1], the Kd was 1 to 100 nM.
